The assay concerns the target Mu-type opioid receptor (Homo sapiens, UniProt P35372). Kind of assay: Agonist activity at Mu-type opioid receptor. Type of assay: functional.

The chains behind the UniProt entries cited, without tags or fusion partners.
UniProt P35372, whole entry: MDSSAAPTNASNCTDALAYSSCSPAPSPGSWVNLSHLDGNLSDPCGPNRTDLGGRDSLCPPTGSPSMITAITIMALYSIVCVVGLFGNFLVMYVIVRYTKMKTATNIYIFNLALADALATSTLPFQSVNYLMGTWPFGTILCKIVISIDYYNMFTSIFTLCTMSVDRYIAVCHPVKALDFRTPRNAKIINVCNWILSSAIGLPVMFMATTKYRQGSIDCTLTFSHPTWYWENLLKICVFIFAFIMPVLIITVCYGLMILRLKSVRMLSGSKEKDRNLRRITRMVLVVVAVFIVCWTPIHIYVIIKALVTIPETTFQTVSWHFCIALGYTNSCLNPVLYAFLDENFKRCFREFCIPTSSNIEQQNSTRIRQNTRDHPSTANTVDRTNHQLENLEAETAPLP

`C[C@@H](NC(=O)[C@@H](N)Cc1ccc(O)cc1)C(=O)N[C@@H](Cc1ccccc1)C(=O)NCC(=O)N[C@@H](Cc1ccc(O)cc1)C(=O)N1CCC[C@H]1C(=O)N[C@@H](CO)C(N)=O` [DERMORPHIN] showed an IC50 of 2.4 nM.

Usually IC50 stands for the point on the concentration scale where inhibition reaches its midpoint. Low values mean greater potency in that assay, high ones weaker potency in that assay.
